Patent US20240400547A1, “2,6-PIPERIDINEDIONE COMPOUND AND APPLICATION THEREOF” (MEDSHINE DISCOVERY INC., priority 2021, published 2024)
Where a name gives a salt, the structure may show the parent alone.

What was measured:
[1] = tested on: human B-cell lymphoma OCI-LY10 cells; assay: In vivo efficacy in SCID mouse xenograft model of human B-cell lymphoma OCI-LY10 cells; parameters: species or system SCID mice; conditions: average, SEM in next grid line
Method: The study evaluates the antitumor effect of the test compounds using a SID mouse xenograft model of human B-cell lymphoma OCI-LY10 cells.
• 1. Experimental animals: SCID mice, female, 6 to 8 weeks old, weighing 17 to 20 g. Beijing Vital River Laboratory Animal Technology Co., Ltd. • 2. Cell line: The human B-cell lymphoma OCI-LY10 cell line was purchased from Nanjing Cobioer Biosciences Co. Ltd (Cat. No CBP60558).
OCI-LY10 cells were cultured in IMDM medium containing 20% FBS and maintained in a 37° C. incubator with 5% CO2 and saturated humidity. Log phase OCI-LY10 cells were collected, resuspended in IMDM basic medium, and mixed 1:1 with Matrigel. The cell concentration was adjusted to 4×10^7/mL. Under sterile conditions, 0.1 mL of the cell suspension was inoculated subcutaneously into the right flank of SCID mice, with an inoculation concentration of 4×10^6/0.1 mL/mouse.
For the pharmacological experiment, once the tumors reached a certain size, animals with tumors that were either too large, too small, or irregularly shaped were eliminated. Animals with tumor volumes between 167.65 and 231.29 mm^3 were selected. Based on tumor volume, the animals were divided into groups using a random grouping method, with each group consisting of six mice, and the average tumor volume was approximately 201.15 mm^3. […] During the experiment, the body weight and tumor size of the animals were measured twice a week. Clinical symptoms were observed and recorded daily.
The test compounds were administered at doses of 10 mg/kg, 30 mg/kg, and 100 mg/kg, with a solvent composition of 10% DMSO/10% Solutol/80% H2O. The formula for calculating tumor volume (TV) was: 1/2×a×b^2, where a and b were the measured length and width of the tumor, respectively. […] According to the results of tumor measurement, the relative tumor volume (RTV) was calculated, and the calculation formula was RTV=Vt/V0, where V0 was the tumor volume measured at the time of group administration (i.e. Day 0), VT was the tumor volume at a certain measurement, and TRTV and CRTV were taken from the same day's data. […]

[2] = tested on: human lymphoma SU-DHL-2 cells; assay: In vivo efficacy in CB17 SCID mouse model with subcutaneous xenograft tumors of human lymphoma SU-DHL-2 cells; parameters: species or system CB17 SCID mice
Method: The study evaluates the antitumor effect of the test compounds using a CB17 SCID mouse model with subcutaneous xenograft tumors of SU-DHL-2 human lymphoma cells.
• 1. Experimental animals: CB17 SCID mice, female, 6 to 8 weeks old, weighing 18 to 22 g. Beijing Vital River Laboratory Animal Technology Co., Ltd. • 2. Cell line: human lymphoma SU-DHL-2 cells (Cat. No ATCC-CRL-2956).
Cell culture: Human lymphoma SU-DHL-2 cells (ATCC-CRL-2956) were cultured in suspension in vitro. The culture conditions were RPMI 1640 medium with […] fetal bovine serum, 100 U/mL penicillin and 100 μg/mL streptomycin, and cultured in a 37° C., […] incubator. Routine passaging was performed twice a week. When the cell saturation reached […] and the quantity met the requirements, the cells were collected, counted, and seeded.
Tumor cell seeding and grouping: 0.2 mL (10×10^6 cells) of SU-DHL-2 cells, in a PBS:Matrigel=1:1 mixture, were subcutaneously inoculated into the right dorsal flank of each mouse. […] The day of grouping was recorded as Day 0, and dosing began according to the body weight of the animals.
The pharmacological experiment consisted of a dosing cycle of seven days, with medication administered once daily at a 24-hour interval. […] During the experiment, the body weight and tumor size of the animals were measured twice a week, and clinical symptoms were observed and recorded daily.
The dosing for the test compounds were 10 mg/kg, 30 mg/kg, and 100 mg/kg, with a solvent composition of 10% DMSO/10% Solutol/80% water. The formula for calculating tumor volume (TV) was: 1/2×a×b^2, where a and b were the measured length and width of the tumor, respectively. […] According to the results of tumor measurement, the relative tumor volume (RTV) was calculated, and the calculation formula was RTV=Vt/V0, where V0 was the tumor volume measured at the time of group administration (i.e. Day 0), VT was the tumor volume at a certain measurement, and TRTV and CRTV were taken from the same day's data. […]

O=C1CCC(c2noc3ccc4c(NC(=O)CN5CCN(C[C@H]6CC[C@H](n7cc(NC(=O)c8coc(-c9ccnc(NCC%10CC%10)c9)n8)c(C(F)F)n7)CC6)CC5)cccc4c23)C(=O)N1 (stereo partly drawn) [Hydrochloride of WX014]
Relative tumor volume (Day 28) ([1]; 10 mg/kg intragastric once a day): 3.37 | Relative tumor volume (Day 28) ([1]; 30 mg/kg intragastric once a day): 1.64 | Relative tumor volume (Day 28) ([1]; 100 mg/kg intragastric once a day): 0.91 | Relative tumor volume (on day 21) ([2]; 10 mg/kg intragastric once daily): 5.79 | Relative tumor volume (on day 21) ([2]; 30 mg/kg intragastric once daily): 5.78 | Relative tumor volume (on day 21) ([2]; 100 mg/kg intragastric once daily): 4.55
